UUG fidelity = yeast start codon fidelity modulation | S. cerevisiae UUG-firefly luciferase reporter, luminescence/redox ratio | activity score, % at 18.7 µM | 0.13% of 350,000 active | AID 602363;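 active means replicate mean at a twofold rise or more, about +100% in these data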;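 further: firefly luciferase made from a UUG start codon reports start codon fidelity; reporter light over untreated wells divided by growth signal over untreated wells; some hits fall short of that in this replicate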
NR1D1 modulator = Rev-erb alpha (human) modulation; AID 1259318; P20393; actives 0.79% (n = 370,000); Rev-erbα–FITC-DNA binding, fluorescence polarization, 90 min; activity, % at 10 µM;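 active means activity above about 14%, limit read from the data; passing the limit was not always enough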;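 further: 0% = DMSO wells with 35 nM protein and 100% = DMSO wells with 750 nM protein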
ERp5 inh = inhibitors of human ERp5; Q15084; ERp5 insulin aggregation, absorbance 650 nm, 90 min; inhibition, % at 9.99 µM; actives 0.05% (n = 350,000); AID 651711;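 active means mean replicate inhibition above about 25%, with every replicate also reaching it, limit read from the data, passing the limit was not always enough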
SMARCA2 act = increases SMARCA2 function in MMTV reporter cells | MG213 cells, MMTV-luciferase reporter, dexamethasone, overnight | activation, % at 9.1 µM | AID 652017 | actives 1% (n = 370,000); in the data active means activation above about 7.8%;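 further: 0% = vehicle wells and 100% = reference activator wells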
PDI inh = PDI (human) enzyme inhibition; P07237; PDI insulin aggregation turbidity, A650, 90 min; AID 588391; actives 0.052% (n = 350,000); inhibition, % at 10 µM;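 active means mean inhibition across replicates of 30% or more, whatever share of single replicates reach that level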
GSIS activator = GLuc luminescence reporter in INS-1E cells, primary screen for activators of glucose-dependent secretion of insulin. activation, % at 16.6 µM. actives 0.61% (n = 370,000). INS-1E GLuc reporter insulin secretion, 2-3 h. AID 743287;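 active means lowest replicate activation of at least 40%, so every replicate reaches that level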;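 further: 0% = median of neutral control wells and 100% = median of IBMX positive control wells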
Rev-erbA confirm = confirmation of modulators of human Rev-erb alpha DNA binding; shares compounds with NR1D1 modulator; Rev-erb alpha FITC-DNA binding, fluorescence polarization, 90 min; activation, % at 25 µM; actives 61% (n = 3,000); AID 1259319;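 active means activation at or above a set limit, or at least 3 SD above the negative control mean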;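 further: 0% = 35 nM protein with DMSO and 100% = 750 nM protein high control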
RORg DNA counter = affects RORgamma DNA binding in a Rev-erb alpha counter-screen. purified RORgamma protein-FITC-DNA binding, fluorescence polarization. IC50, µM. actives 8% (n = 910). shares compounds with NR1D1 modulator;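 active means Compounds whose fitted half-maximal concentration for disrupting protein-DNA binding is below 10 micromolar; the record names Rev-erb in its text, so the target is in doubt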
Active calls of the source: *; x = no result. Sampled rows, rich in hits. Any-hit rate of the full collection: about 2.1%.

SMILES	UUG fidelity	NR1D1 modulator	ERp5 inh	SMARCA2 act	PDI inh	GSIS activator	Rev-erbA confirm	others
CCOc1ncccc1C(=O)Nc1cc(S(=O)(=O)N2CCOCC2)ccc1N1CCCC1	-4	0	2	5	2	-7	x
CCOc1ncccc1C(=O)Nc1ccc(Cl)c(S(=O)(=O)N2CCCC2)c1	7	33*	7	-6	2	-11	19*
CCOc1ncccc1C(=O)Nc1cc(S(=O)(=O)N2CCCCC2)ccc1Cl	0	23*	23	-4	-10	3	11*
CCCNC(=O)Nc1ccc2c(c1)OC[C@@H](C)N(C(C)=O)C[C@H](C)[C@@H](OC)CN(C)C2=O	x	x	-3	x	x	-5	x
CCC(=O)N(C)C[C@@H]1Oc2ncc(/C=C/c3ccccc3)cc2C(=O)N([C@H](C)CO)C[C@H]1C	16	x	2	x	x	1	x
COc1ccc(NC(=O)Nc2cccc3c2O[C@H](CN(C)S(=O)(=O)c2ccc(F)cc2)[C@@H](C)CN([C@@H](C)CO)C3=O)cc1	8	x	x	x	x	1	x
O=C(Cc1nc(=O)c2ccccc2s1)Nc1ccccc1	-21	-4	x	6	6	x	x
O=C(Cc1ccccc1)Nc1nc(=O)c2ccccc2s1	-8	32*	x	2	0	x	18*
O=C(Nc1nc(=O)c2ccccc2s1)c1ccc(Cl)cc1	-29	78*	x	3	-6	-11	107*	RORg DNA counter=>40
C/C=C(/C(=C/C)c1ccc(O)cc1)c1ccc(O)cc1	6	31*	-9	-1	3	x	40*	RORg DNA counter=>40

Ordered by heavy-atom count (low to high): some entries from above.
SMILES	UUG fidelity	NR1D1 modulator	ERp5 inh	SMARCA2 act	PDI inh	GSIS activator	Rev-erbA confirm	others
C/C=C(/C(=C/C)c1ccc(O)cc1)c1ccc(O)cc1	6	31*	-9	-1	3	x	40*	RORg DNA counter=>40
O=C(Nc1nc(=O)c2ccccc2s1)c1ccc(Cl)cc1	-29	78*	x	3	-6	-11	107*	RORg DNA counter=>40
CCOc1ncccc1C(=O)Nc1ccc(Cl)c(S(=O)(=O)N2CCCC2)c1	7	33*	7	-6	2	-11	19*
CCOc1ncccc1C(=O)Nc1cc(S(=O)(=O)N2CCCCC2)ccc1Cl	0	23*	23	-4	-10	3	11*
CCC(=O)N(C)C[C@@H]1Oc2ncc(/C=C/c3ccccc3)cc2C(=O)N([C@H](C)CO)C[C@H]1C	16	x	2	x	x	1	x

(listing goes on)
SMILES	UUG fidelity	NR1D1 modulator	ERp5 inh	SMARCA2 act	PDI inh	GSIS activator	Rev-erbA confirm	others
Cc1cc(Cl)ccc1Oc1ncc(-c2ccc(Cl)cc2)cn1	x	24*	x	1	0	x	18*
CCCn1c(=O)[nH]c(=O)c2c(C(=O)OCC)cc(-c3cccs3)nc21	5	30*	4	-2	-8	17	27*
C[C@@H]1CCCCO[C@@H](CN(C)C)[C@H](C)CN([C@H](C)CO)C(=O)c2cc(NC(=O)Nc3ccc(F)cc3)ccc2O1	16	x	-4	x	x	-7	x
C[C@H]1CN([C@@H](C)CO)C(=O)Cc2cc(NC(=O)Nc3ccc(F)cc3)ccc2O[C@@H]1CN(C)C(=O)Nc1ccc(C(F)(F)F)cc1	-15	x	x	x	x	-12	x
Cc1cc(OC(C)C(=O)NCc2cccnc2)c2c(C)c(Cc3ccccc3)c(=O)oc2c1 (stereo not drawn)	-15	107*	-4	1	5	0	104*	RORg DNA counter=>40
Cc1cc(OC(C)C(=O)NCc2cccnc2)c2c(C)c(C)c(=O)oc2c1 (stereo not drawn)	-11	-7	4	-1	0	15	x
CCn1cc(C(=O)OCC(=O)Nc2cccc(Cl)c2Cl)c(=O)c2ccc(C)nc21	0	43*	8	1	2	-1	19*
CCn1cc(C(=O)OCC(=O)Nc2c(C)n(C)n(-c3ccccc3)c2=O)c(=O)c2ccc(C)nc21	5	x	x	x	12	x	x
CC(C)NC(=O)[C@@]1(c2ccc([N+](=O)[O-])cc2)CC(=O)N(CC23CC4CC(CC(C4)C2)C3)[C@@H]1c1ccc(CO)cc1	0	x	-3	x	x	x	x
CC(C)c1cn(CC[C@H]2CC[C@H](NC(=O)C3CCC3)[C@@H](CO)O2)nn1	8	x	2	x	x	10	x
CCc1nn(CC(=O)NCCCc2ccccc2)c(=O)c2cc3c(OC)cccc3n12	0	31*	4	0	-6	9	4
COc1cccc2c1cc1c(=O)n(CC(=O)NCCCc3ccccc3)nc(C)n12	-6	x	x	x	0	x	x
COc1cccc(S(=O)(=O)N(C)C[C@@H]2Oc3cc(C4=CCCC4)ccc3S(=O)(=O)N([C@H](C)CO)C[C@H]2C)c1	-10	x	1	x	x	0	x
COc1cc(C(C)=O)ccc1OCC(=O)NC(=O)Nc1ccc(C)cc1C	-14	28*	-1	0	6	18	-6
Cc1cc(C)c2c(N)c(C(=O)N/N=C/c3cccs3)sc2n1	-19	80*	-1	7	-5	x	54*	RORg DNA counter=>40
Cc1ccc(-c2nc3c(c(=O)[nH]c(=O)n3Cc3ccccc3)n2Cc2ccccc2)o1	x	0	-3	0	2	-27	x
Cc1cc(C)c2c(=O)[nH]c(=O)n(Cc3ccccc3)c2n1	x	23*	x	3	4	x	15
CCCC1(c2ccccc2)NC(=O)N(CC(=O)Nc2cc(C)on2)C1=O (stereo not drawn)	x	0	1	-2	2	-12	x
CCOC(=O)c1cc(-c2ccccc2)sc1NC(=O)CN1C(=O)c2ccccc2C1=O	-17	33*	x	1	9	x	8
CCCC1(c2ccccc2)NC(=O)N(CC(=O)Nc2sc(-c3ccccc3)cc2C(=O)OCC)C1=O (stereo not drawn)	-13	56*	x	1	-8	x	50*	RORg DNA counter=>40
COc1ccccc1C(=O)Nc1ccc2c(C)cc(=O)oc2c1	-7	4	0	5	-1	-15	x
Cc1cc(C)c(NC(=O)COc2ccccc2C(=O)Nc2ccc3c(c2)oc2ccccc23)c(C)c1	-19	32*	4	-7	-7	-3	37*	RORg DNA counter=>40
O=C(NCC1CCCO1)c1cn(Cc2ccccc2)nc1-c1ccc(Cl)cc1 (stereo not drawn)	-8	-2	-1	-3	1	-12	x
O=C(NCC1CCCO1)c1cn(Cc2ccccc2)nc1-c1ccccc1 (stereo not drawn)	-5	27*	-4	-2	-1	9	-5
CO[C@H]1CN(C)C(=O)c2ccc(NC(=O)c3cnccn3)cc2OC[C@H](C)NC[C@@H]1C	x	x	2	x	x	20	x
N#Cc1ccc(C23CC4(C2)[C@H](CN(Cc2cccnc2)[C@@H]4c2ccccc2)C3c2ccccc2)cc1 (stereo partly drawn)	-15	23*	-1	-1	-4	14	29*
C[C@@H]1CCCCO[C@H](CN(C)C(=O)c2ccccc2)[C@H](C)CN([C@@H](C)CO)C(=O)c2cc(NS(=O)(=O)c3cccs3)ccc2O1	-1	x	7	x	x	-24	x
Cc1cccc2c(C(=O)Nn3cnnc3)cc(-c3ccccc3Cl)nc12	x	-3	2	4	0	-10	x
Cc1cccc2c(C(=O)n3cccn3)cc(-c3ccccc3Cl)nc12	x	31*	x	2	-9	2	7
COc1ccc(-n2cnnc2SCC(=O)Nc2cccnc2Cl)cc1	x	4	3	-2	4	-8	x
COc1ccc2c(C)cc(SCC(=O)Nc3ncc(Cl)cc3Cl)nc2c1	x	119*	1	-4	4	-2	56*	RORg DNA counter=>40

Source: PubChem
